This note sets out measurements from paper PMC2680390 (Journal of medicinal chemistry, 2008).

Amino acid sequences for entries named in this document (tags omitted). Residues count along the entry.
UniProt P03372, 311-547 C381S/C530S limits assumed: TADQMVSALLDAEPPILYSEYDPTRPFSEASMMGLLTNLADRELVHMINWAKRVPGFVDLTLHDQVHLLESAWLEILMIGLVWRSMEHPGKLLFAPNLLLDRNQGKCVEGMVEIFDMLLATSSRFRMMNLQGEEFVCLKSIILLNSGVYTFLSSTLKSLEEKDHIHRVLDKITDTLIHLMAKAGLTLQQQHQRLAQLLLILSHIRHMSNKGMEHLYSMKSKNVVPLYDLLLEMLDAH

Structures are written as SMILES.

In the assay the target is ERα/SRC-3 coactivator interaction (Homo sapiens, UniProt P03372, C381S/C530S). As to the kind of experiment: TR-FRET CBI assay, ERα-LBD / SRC-3-NRD. In kind it is binding. Particulars: 1 μM estradiol, fluorescein-SRC-3-NRD 50 nM. Background: Time-resolved FRET reads energy transfer from a long-lived donor to a nearby acceptor.

Regarding `CC(C)CNc1nc(CCc2cccc3ccccc23)cc(N(C)CC(C)C)n1` [Compound 34c, N^4-methyl-N^2,N^4-diisobutyl-6-[(2-naphthalen-1-yl-ethyl)-pyrimidin-2,4-yl]-diamine], the “TR-FRET Ki ERα” value is listed as “bind”.
Turning to `CC(C)CNc1nc(CCc2ccccc2)cc(N(C)CC(C)C)n1` [Compound 35, N^4-dimethyl-N^2,N^4-diisobutyl-(6-phenethyl-pyrimidin-2,4-yl)-diamine], the “TR-FRET Ki ERα” value is reported as “bind”.
